# Earlier results in patent publication US20020032197A1 (priority 1998, published 2002).
# Test system: muscarinic receptors
# Conditions: in vitro
smiles,measurement,value
"O=C(NCCN1CCOCC1)c1ccc(Cl)cc1 [moclobemide, p-chloro-N-(2-morpholinoethyl)-benzamide]",affinity for muscarinic receptors,no appreciable affinity
